Reference: patent US20120157471A1, “BENZIMIDAZOLE DERIVATIVES” (PFIZER INC., priority 2009, published 2012)

Chains of the proteins cited; added tags and fusions are not shown. Residues count along the entry.
UniProt Q99835, 181-787 limits assumed: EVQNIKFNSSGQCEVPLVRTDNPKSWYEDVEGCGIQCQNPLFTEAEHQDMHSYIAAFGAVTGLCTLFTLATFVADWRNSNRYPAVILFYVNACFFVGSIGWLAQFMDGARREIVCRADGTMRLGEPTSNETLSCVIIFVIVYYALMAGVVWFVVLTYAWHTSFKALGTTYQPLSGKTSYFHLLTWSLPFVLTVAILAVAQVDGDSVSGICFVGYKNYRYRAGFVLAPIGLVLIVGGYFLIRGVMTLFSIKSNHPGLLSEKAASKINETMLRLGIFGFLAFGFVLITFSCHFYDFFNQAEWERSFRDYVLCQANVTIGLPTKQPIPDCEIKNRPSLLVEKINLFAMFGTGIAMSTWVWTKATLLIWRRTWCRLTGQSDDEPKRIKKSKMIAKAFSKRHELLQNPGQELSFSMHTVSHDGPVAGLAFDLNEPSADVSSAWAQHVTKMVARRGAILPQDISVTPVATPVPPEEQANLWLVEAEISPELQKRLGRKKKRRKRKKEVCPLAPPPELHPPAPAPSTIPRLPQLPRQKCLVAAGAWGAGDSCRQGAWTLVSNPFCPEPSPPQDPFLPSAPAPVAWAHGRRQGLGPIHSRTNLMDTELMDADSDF

How the values were obtained:
[1] = target: human Smo (amino acids 181-787) (Homo sapiens, UniProt Q99835); assay: Smo radioligand competition binding assay (displacement of 3H-PF-03451358 from HEK293 membranes)
Experimental: Membranes were prepared from a stable cell line created in HEK293FlpIn-TetR cells (Invitrogen) using FIp recombinase-mediated insertion of the pSecTag-FRT/V5-His vector containing a cDNA encoding amino acids 181-787 of human Smo fused to the murine lgk leader sequence to produce a cell surface expressed Smo 181-781 protein. Hygromycin-resistant clones were obtained and stained for LacZ expression (no expression indicates a correct knock-in of my fusion cDNA). LacZ-negative cells were analyzed for binding tritiated Smo antagonist PF-03451358. For membrane preparation, the HEK293 cells expressing Smo 181-781 were grown to 90% confluence in nine to fifteen 245 mm×245 mm×22 mm dishes, washed with Dulbecco's PBS (15 ml per dish) and harvested via scraping in 10 ml of DPBS. The cells were collected and centrifuged at 1500 rpm (400×g) for 10 min at 4° C. […] Total protein in the membrane preparation is determined using the Pierce BCA protein assay (Pierce Chemical).
For the binding competition assay, 100 μl of Assay Buffer is added to all the wells of a 96 well GF/B filter plate (Millipore MultiScreen-HTS-FB cat# MSFBN6B50) for 10 minutes to pre-wet the filter prior to evacuation of the buffer (8 inches Hg for 8 seconds). […] The plate is counted in a TopCount scintillation counter (Perkin Elmer). […]

Gli-Luc/MEF cells (Smo) = assay: Gli-Luc/MEF assay (Shh-stimulated luciferase reporter under the Gli response element); details: read-out: Gli IC50, 48 hours
Experimental: The Gli-Luc/MEF cells obtained from Gli-Luc transgenic mice (Pfizer CoE, Genetically Modified Mice) contain a luciferase reporter gene under the control of the Gli response element. Luciferase activity stimulated with Sonic hedgehog ligand was inhibited by Smo inhibitors, and IC50 was subsequently calculated.
Plates were incubated at 37° C. and 5% CO2 overnight. On day two, cells were dosed with test compounds at a final concentration ranging from […] to 50 μM at a 3-time series dilution. Immediately after dosing cells with compounds, recombinant mouse sonic hedgehog (Shh, R&D Systems 464-SH) was added to a final concentration of 2 μg/mL. The cells were incubated with compounds and Shh for 48 hours at 37° C. and 5% CO2. Luciferase assays were conducted on Day 4 using the Bright-Glo Luciferase assay system (Promega E2620) according to Promega's protocol. Briefly, Bright-Glo luciferase reagent was made up and 25 uL were added to each well of the 384-well plate containing media. Plates were kept at room temperature for 5 minutes, and then read on an Envision Luminescence plate reader (Perkin-Elmer). IC50 of the inhibition was calculated by using GraphPad Prism.

SMILES: Cn1c(-c2cc(N3CCC4(CC3)CC(O)CCO4)ncc2Cl)nc2ccccc21 (stereo not drawn) [Example A-204, 9-[5-chloro-4-(1-methyl-1H-benzimidazol-2-yl)pyridin-2-yl]-1-oxa-9-azaspiro[5.5]undecan-4-ol]
- SMO % inh. @ 0.05 μM ([1]; 0.05 μM test compound, displacement of 3H-PF-03451358): 94%
- IC50 ([1]; read-out: SMO IC50, radioligand competition binding): 20 nM
- IC50 (Gli-Luc/MEF cells (Smo)): 10 nM
